# Patent US12516027B2, “Lappaconitine derivative and use thereof” (priority 2020, dated 2026)
# System: Sprague Dawley (SD) rat
# Experiment: Animal model of bone fracture, ilium bone defect
# Type: in vivo
# Settings: implanted in collagen sponge at bone defect site; QG3030 low, medium and high; BMP2 1 ug/10 uL
# Method: The ilium of a Sprague Dawley (SD) rat was subjected to drilling with a diameter of 2 mm to induce a bone defect, and QG3030 (6, 30, and 150 μg/10 μL) mixed with an excipient (collagen sponge, CollaCote®) was implanted into a bone defect site to evaluate an osteoanagenic effect (FIG. 11). In this case, the positive control was treated with bone morphogenic protein-2 (BMP2), and the negative control was treated with DMSO (Table 3).
# To statistically quantify the osteoanagenic capacity of QG3030, a degree of osteogenesis was realized with a 3-D image, and a region of interest (ROI) was set to analyze parameters such as bone volume/total volume (BV/TV; %), trabecular thickness (Tb.Th; mm), trabecular number (Tb.N; 1/mm), and trabecular separation (Tb.Sp; mm).
molecule,measurement,value
"BMP2: bone morphogenic protein-2 (BMP2), positive control (protein, UniProt P12643 283-396, looked up) Bone morphogenetic protein 2: QAKHKQRKRLKSSCKRHPLYVDFSDVGWNDWIVAPPGYHAFYCHGECPFPLADHLNSTNHAIVQTLVNSVNSKIPKACCVPTELSAISMLYLDENEKVVLKNYQDMVVEGCGCR",bone quality by Tb.N and Tb.Sp (other than Tb.Th) compared to DMSO-treated group,high-quality bone tissue was statistically significantly formed
same,bone volume/total volume (BV/TV) compared to negative control treated with DMSO,increased to a similar level
